The entries are a selection whose mix differs from that of the whole data set. The source made the active and inactive calls.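 Rule for the calls: active = mean normalized replicate activity at least 40 and at least half of replicates scoring 40 or more; inconclusive = only one of the two criteria met; inactive = mean below 40 and under half of replicates reaching 40.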

By UniProt entry, the sequences of proteins in these tests, tags left out. Where a name states a change or a piece, a line headed by the entry shows the natural chain unless it says otherwise.
UniProt Q92698: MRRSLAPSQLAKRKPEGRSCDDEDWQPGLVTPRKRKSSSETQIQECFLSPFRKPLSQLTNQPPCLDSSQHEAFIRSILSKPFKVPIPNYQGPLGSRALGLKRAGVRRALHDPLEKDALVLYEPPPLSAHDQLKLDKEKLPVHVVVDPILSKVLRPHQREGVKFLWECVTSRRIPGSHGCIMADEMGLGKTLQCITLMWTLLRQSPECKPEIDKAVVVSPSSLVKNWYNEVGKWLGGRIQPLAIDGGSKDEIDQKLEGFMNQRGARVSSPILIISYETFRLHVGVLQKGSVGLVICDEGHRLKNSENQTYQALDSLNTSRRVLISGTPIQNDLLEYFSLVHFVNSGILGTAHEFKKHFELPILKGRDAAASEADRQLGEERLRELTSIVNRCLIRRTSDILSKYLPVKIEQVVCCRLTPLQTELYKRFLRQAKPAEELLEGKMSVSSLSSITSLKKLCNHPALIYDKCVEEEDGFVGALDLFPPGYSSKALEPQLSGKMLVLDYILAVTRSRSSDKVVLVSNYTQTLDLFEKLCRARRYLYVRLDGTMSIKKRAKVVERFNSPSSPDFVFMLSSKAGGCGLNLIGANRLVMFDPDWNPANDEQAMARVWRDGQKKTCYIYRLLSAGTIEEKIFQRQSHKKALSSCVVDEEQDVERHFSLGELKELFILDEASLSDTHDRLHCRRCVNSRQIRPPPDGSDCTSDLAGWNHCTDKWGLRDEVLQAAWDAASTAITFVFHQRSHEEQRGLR

The assay has as its target DNA repair and recombination protein RAD54-like (Homo sapiens) (UniProt Q92698). As to the kind of experiment: RAD54 Holliday junction migration blockers – biochemical, fluorescence, single point, primary screen (AID 602329).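 Note: 0% = median of neutral control wells and 100% = median of positive control wells; inhibitors cause a drop in the FAM fluorescence signal.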 The settings on record: RAD54 Holliday junction branch migration, FAM/BHQ fluorescence; at 10.4 µM; active compounds read high.
As for `O=C(O)CNc1ccc([As](=O)(O)O)cc1`, the inhibition is inactive: -1.43%. In the case of `O=[N+]([O-])c1cccc(NC2=NCC(CBr)S2)c1` (stereo unspecified) it was inactive: -8.78%; in that of `CCc1nc2c(n1)c1c(non1O)c1c2no[n+]1[O-]`, inactive: 9.14%. For `CC(=O)N1C2C3N(C(C)=O)C1C1N(C(C)=O)C(C(N1C(C)=O)N3C(C)=O)N2C(C)=O` the value was inactive: 2.22%. As to `O=[N+]([O-])c1cccc2n[nH]nc12`, the inhibition was inactive: -0.643%. For `COc1ccc(C2=NCC(CBr)S2)cc1` (stereo unspecified) the value was inactive: -1.66%. In the case of `c1cc(-c2nn[nH]n2)ccc1-c1nn[nH]n1` it was inactive: 1.72%. For `CC1CCN(C(=O)Oc2c(Cl)cc(Cl)c3cccnc23)CC1` the value was inactive: -6.52%; for `CC(C)c1nc(Nc2ccccc2)n(P(=O)(N(C)C)N(C)C)n1`, inactive: -5.79%; for `Nc1ccc([As](=O)(O)c2ccc(N)cc2)cc1`, inactive: 3.17%. For the molecule `C[N+]1=C2C=CC=CC=C2SC12C([N+](=O)[O-])=CC([N+](=O)[O-])=C[C-]2[N+](=O)[O-]` (stereo unspecified), the inhibition is inactive: -2.72%.

Turning to `Clc1ccc(Cl)c(NC2=NCC(CBr)S2)c1` (stereo unspecified), the inhibition was inactive: 10.6%.

On to `CN1CCCC(OC(=O)C(c2ccccc2)c2ccccc2)C1` (stereo unspecified), for which the inhibition is inactive: -18.9%. For `Cc1ccc(OP(=O)(Nc2nccs2)Oc2ccc(C)cc2)cc1` the value was inactive: -0.988%; for `CN(C(=O)Cc1ccc(Cl)c(Cl)c1)[C@H]1CCCC[C@H]1N1CCCC1`, inactive: -11.6%; for `Cc1ccc(N/C(=N/P(=O)(N2CCOCC2)N2CCOCC2)N2CCOCC2)cc1`, inactive: 14.4%.

Turning to `Oc1ccccc1CNc1ccccn1`, the inhibition was inactive: 8.98%. In the case of `O=C(NC(Sc1ccncn1)C(Cl)(Cl)Cl)c1ccccc1` (stereo unspecified) it was inactive: 1.82%; in that of `CC(C)CC(=O)NC(Sc1ccc(Cl)cc1)C(Cl)(Cl)Cl` (stereo unspecified), inactive: -11.1%. In the case of `CCOP(=O)(Nc1ccccc1)OCC` it was inactive: -9.28%; in that of `CN(C(=O)Cc1ccc(Cl)c(Cl)c1)[C@H]1CCCC[C@@H]1N1CCCC1`, inactive: -6.28%; in that of `CN(C)P(=O)(N(C)C)n1c(Nc2ccccc2)nnc1-c1ccccc1`, inactive: -5.96%. In the case of `O=C(O)c1ccccc1[As](=O)(O)O` it was inactive: -0.552%. For the molecule `CC(=O)Nc1ccc([As](=O)(O)O)cc1`, the inhibition was inactive: 1.52%. In the case of `CCCC1OP(N)(=O)OCC1CC` (stereo unspecified), the inhibition was inactive: 6.98%. As for `Nc1cccc2ccc([As](=O)(O)O)cc12`, the inhibition was inactive: -4.41%.

As usually defined, the inhibition is the drop in the measured response relative to a control, in per cent.

The values above are taken from PubChem BioAssay AID602329 (Broad Institute, 2012).
